In paper PMC13070491, “Single-nucleus transcriptomics, pharmacokinetics, and pharmacodynamics of CDK4/6 and mTOR inhibition in a Phase 0/1 trial of recurrent high-grade glioma” (Neuro-Oncology, 2025):

Tested on: GB126, GB239 and GB86 patient-derived cell lines
Assay: In vitro single-cell RNA sequencing, analyses across the cell lines (pseudobulk differential gene expression, GSEA, non-cycling cells)
Assay type: cell-based, human
Method: Patient-derived glioma stem cell lines (GSCs; GB126, GB86, and GB239) were established from resected GBM tumor tissue. Cell lines were genetically profiled for mutations and copy number aberrations using the IvySeq custom gene panel. […] GB239 was derived from a tumor sample included in this Phase 0 trial (tumor sample: 100-0039). All human GSCs were cultured as described previously.[12]
Following the fifth day of drug exposure, cells were harvested, cryopreserved to be processed at a later point, or immediately processed for single-cell RNA sequencing (10x Genomics, 3’ version 3). The single-cell RNA sequencing data were then processed via cellranger count and Seurat. Briefly, cells were filtered out based on the following criteria: minimum number of genes detected >500 and <10 000 with a maximum percentage of mitochondrial genes set to 10%. Statistical assessment was made between the malignant proportions of each cell state using a 2-sided paired t-test.
Descriptive statistics of the clinical data are included in Table 1. Comparisons between groups were conducted using a 2-sided or paired 2-sided t-test, where indicated. P < .05 was considered significant. Multiple hypothesis test corrections (ie, false discovery rate correction) were applied for snRNAseq pseudobulk differential expression analysis.

Work on `CN(C)C(=O)c1cc2cnc(Nc3ccc(N4CCNCC4)cn3)nc2n1C1CCCC1` [ribo] yielded a log2FoldChange (feature AC002074.2, ribociclib versus control (DMSO)) of 1.238, a log2FoldChange (feature AC004828.2, ribociclib versus control (DMSO)) of 1.204 and a log2FoldChange (feature AC005019.2, ribociclib versus control (DMSO)) of 1.133. It also gave a log2FoldChange (feature AC005050.3, ribociclib versus control (DMSO)) of 1.098, a log2FoldChange (feature AC005209.1, ribociclib versus control (DMSO)) of 1.102 and a log2FoldChange (feature AC005224.2, ribociclib versus control (DMSO)) of 1.098. For the same compound, the log2FoldChange (feature AC005692.1, ribociclib versus control (DMSO)) was 1.127, the log2FoldChange (feature AC005699.1, ribociclib versus control (DMSO)) was 1.02 and the log2FoldChange (feature AC005899.6, ribociclib versus control (DMSO)) was 1.179. For the same compound, the log2FoldChange (feature AC005908.3, ribociclib versus control (DMSO)) was 1.126, the log2FoldChange (feature AC005999.2, ribociclib versus control (DMSO)) was 1.296 and the log2FoldChange (feature AC006355.2, ribociclib versus control (DMSO)) was 1.109. For the same compound, the log2FoldChange (feature AC007009.1, ribociclib versus control (DMSO)) was 1.146, the log2FoldChange (feature AC007128.2, ribociclib versus control (DMSO)) was 1.193 and the log2FoldChange (feature AC007422.1, ribociclib versus control (DMSO)) was 1.318. The log2FoldChange (feature AC007938.3, ribociclib versus control (DMSO)) was 1.227, the log2FoldChange (feature AC008056.1, ribociclib versus control (DMSO)) was 1.084 and the log2FoldChange (feature AC008056.3, ribociclib versus control (DMSO)) was 1.241. It also gave a log2FoldChange (feature AC008067.1, ribociclib versus control (DMSO)) of 1.146, a log2FoldChange (feature AC008121.2, ribociclib versus control (DMSO)) of 1.023 and a log2FoldChange (feature AC008592.2, ribociclib versus control (DMSO)) of 1.196. It also gave a log2FoldChange (feature AC008825.1, ribociclib versus control (DMSO)) of 1.249, a log2FoldChange (feature AC008883.2, ribociclib versus control (DMSO)) of 1.029 and a log2FoldChange (feature AC009063.2, ribociclib versus control (DMSO)) of 1.028. It also gave a log2FoldChange (feature AC009495.3, ribociclib versus control (DMSO)) of 1.129, a log2FoldChange (feature AC010273.3, ribociclib versus control (DMSO)) of 1.0452 and a log2FoldChange (feature AC010280.1, ribociclib versus control (DMSO)) of 1.031. For the same compound, the log2FoldChange (feature AC010547.3, ribociclib versus control (DMSO)) was 1.322, the log2FoldChange (feature AC012511.1, ribociclib versus control (DMSO)) was 1.1953 and the log2FoldChange (feature AC012613.1, ribociclib versus control (DMSO)) was 1.163. For the same compound, the log2FoldChange (feature AC015983.2, ribociclib versus control (DMSO)) was 1.126, the log2FoldChange (feature AC016716.2, ribociclib versus control (DMSO)) was 1.19 and the log2FoldChange (feature AC016907.2, ribociclib versus control (DMSO)) was 1.038. For the same compound, the log2FoldChange (feature AC022469.1, ribociclib versus control (DMSO)) was 1.159, the log2FoldChange (feature AC022509.5, ribociclib versus control (DMSO)) was 1.028 and the log2FoldChange (feature AC024145.1, ribociclib versus control (DMSO)) was 1.045. For the same compound, the log2FoldChange (feature AC025475.1, ribociclib versus control (DMSO)) was 1.104, the log2FoldChange (feature AC025917.1, ribociclib versus control (DMSO)) was 1.27 and the log2FoldChange (feature AC026316.5, ribociclib versus control (DMSO)) was 1.134. For the same compound, the log2FoldChange (feature AC027013.1, ribociclib versus control (DMSO)) was 1.25, the log2FoldChange (feature AC060834.2, ribociclib versus control (DMSO)) was 1.022 and the log2FoldChange (feature AC064805.2, ribociclib versus control (DMSO)) was 1.098. The log2FoldChange (feature AC068205.1, ribociclib versus control (DMSO)) was 1.1311, the log2FoldChange (feature AC068254.1, ribociclib versus control (DMSO)) was 1.164 and the log2FoldChange (feature AC068473.4, ribociclib versus control (DMSO)) was 1.0291. The log2FoldChange (feature AC068506.1, ribociclib versus control (DMSO)) was 1.25, the log2FoldChange (feature AC068989.1, ribociclib versus control (DMSO)) was 1.227 and the log2FoldChange (feature AC073941.1, ribociclib versus control (DMSO)) was 1.2518. The log2FoldChange (feature AC078883.2, ribociclib versus control (DMSO)) was 1.078, the log2FoldChange (feature AC079177.1, ribociclib versus control (DMSO)) was 1.267 and the log2FoldChange (feature AC087235.1, ribociclib versus control (DMSO)) was 1.04. For the same compound, the log2FoldChange (feature AC087627.1, ribociclib versus control (DMSO)) was 1.103, the log2FoldChange (feature AC087857.1, ribociclib versus control (DMSO)) was 1.335 and the log2FoldChange (feature AC090138.1, ribociclib versus control (DMSO)) was 1.283. The log2FoldChange (feature AC090206.1, ribociclib versus control (DMSO)) was 1.087, the log2FoldChange (feature AC090692.3, ribociclib versus control (DMSO)) was 1.0991 and the log2FoldChange (feature AC091563.1, ribociclib versus control (DMSO)) was 1.024. It also gave a log2FoldChange (feature AC091849.2, ribociclib versus control (DMSO)) of 1.277, a log2FoldChange (feature AC091885.2, ribociclib versus control (DMSO)) of 1.158 and a log2FoldChange (feature AC091917.3, ribociclib versus control (DMSO)) of 1.185. It also gave a log2FoldChange (feature AC091932.1, ribociclib versus control (DMSO)) of 1.201, a log2FoldChange (feature AC092118.1, ribociclib versus control (DMSO)) of 1.117 and a log2FoldChange (feature AC092153.1, ribociclib versus control (DMSO)) of 1.043. The log2FoldChange (feature AC092159.1, ribociclib versus control (DMSO)) was 1.13, the log2FoldChange (feature AC092691.1, ribociclib versus control (DMSO)) was 1.137 and the log2FoldChange (feature AC092834.1, ribociclib versus control (DMSO)) was 1.0911. For the same compound, the log2FoldChange (feature AC093206.1, ribociclib versus control (DMSO)) was 1.177, the log2FoldChange (feature AC093240.1, ribociclib versus control (DMSO)) was 1.235 and the log2FoldChange (feature AC093334.1, ribociclib versus control (DMSO)) was 1.106. It also gave a log2FoldChange (feature AC093675.1, ribociclib versus control (DMSO)) of 1.019, a log2FoldChange (feature AC096576.6, ribociclib versus control (DMSO)) of 1.284 and a log2FoldChange (feature AC096719.1, ribociclib versus control (DMSO)) of 1.09. The log2FoldChange (feature AC099567.1, ribociclib versus control (DMSO)) was 1.2019, the log2FoldChange (feature AC099791.3, ribociclib versus control (DMSO)) was 1.273 and the log2FoldChange (feature AC103740.2, ribociclib versus control (DMSO)) was 1.2. The log2FoldChange (feature AC104009.1, ribociclib versus control (DMSO)) was 1.092, the log2FoldChange (feature AC104072.1, ribociclib versus control (DMSO)) was 1.249 and the log2FoldChange (feature AC104335.2, ribociclib versus control (DMSO)) was 1.08. It also gave a log2FoldChange (feature AC104623.1, ribociclib versus control (DMSO)) of 1.262, a log2FoldChange (feature AC104653.2, ribociclib versus control (DMSO)) of 1.259 and a log2FoldChange (feature AC104827.1, ribociclib versus control (DMSO)) of 1.029. For the same compound, the log2FoldChange (feature AC105230.1, ribociclib versus control (DMSO)) was 1.058, the log2FoldChange (feature AC108472.1, ribociclib versus control (DMSO)) was 1.115 and the log2FoldChange (feature AC124312.5, ribociclib versus control (DMSO)) was 1.047. The log2FoldChange (feature AC138356.1, ribociclib versus control (DMSO)) was 1.147, the log2FoldChange (feature AC139722.1, ribociclib versus control (DMSO)) was 1.183 and the log2FoldChange (feature AC141930.1, ribociclib versus control (DMSO)) was 1.024. For the same compound, the log2FoldChange (feature AC144831.1, ribociclib versus control (DMSO)) was 1.255, the log2FoldChange (feature AC147651.3, ribociclib versus control (DMSO)) was 1.272 and the log2FoldChange (feature AC244517.12, ribociclib versus control (DMSO)) was 1.086. For the same compound, the log2FoldChange (feature AC244517.7, ribociclib versus control (DMSO)) was 1.287, the log2FoldChange (feature ACE2, ribociclib versus control (DMSO)) was 1.152 and the log2FoldChange (feature ACOXL-AS1, ribociclib versus control (DMSO)) was 1.043. For the same compound, the log2FoldChange (feature ADAM21, ribociclib versus control (DMSO)) was 1.04, the log2FoldChange (feature ADIRF, ribociclib versus control (DMSO)) was 1.124 and the log2FoldChange (feature ADRA2A, ribociclib versus control (DMSO)) was 1.1825. The log2FoldChange (feature AKR1B10, ribociclib versus control (DMSO)) was 1.062, the log2FoldChange (feature AKR1C1, ribociclib versus control (DMSO)) was 1.264 and the log2FoldChange (feature AL022318.5, ribociclib versus control (DMSO)) was 1.047.
